Experimental data reported in DBAASP.
In brackets after ≈: the same amount, converted by molar mass.

Tests used:
Test in all cases: ≥ marks a high value that may be exact or a test limit, other limits are often not marked, values filed in µg/mL are converted to µM
[1] = system: Xanthomonas campestris pv. Vesicatoria 2133-2
[2] = system: Pseudomonas syringae pv. syringae EPS 94
[3] = system: Erwinia amylovora PMV 6076

`CC[C@H](C)[C@H](NC(=O)[C@H](CC(C)C)NC(=O)[C@H](C)NC(=O)[C@@H]1CCCN1C(=O)[C@H](CC(C)C)NC(=O)CNC(=O)[C@@H](NC(=O)[C@@H](NC(=O)[C@H](C)NC(=O)[C@@H]1CCCN1C(=O)CNC(=O)[C@H](C)NC(=O)[C@H](CC(C)C)NC(=O)[C@H](Cc1ccc(O)cc1)NC(=O)[C@H](CCCCN)NC(=O)[C@H](CC(C)C)NC(=O)[C@@H](NC(=O)[C@H](CCCCN)NC(=O)[C@H](CCCCN)NC(=O)[C@H](Cc1ccccc1)NC(=O)[C@H](CC(C)C)NC(=O)[C@H](CCCCN)NC(=O)[C@@H](N)CCCCN)[C@@H](C)CC)[C@@H](C)O)[C@@H](C)O)C(=O)N[C@@H](CO)C(=O)N[C@@H](Cc1c[nH]c2ccccc12)C(=O)N[C@@H](CCCCN)C(=O)N[C@@H](CC(=O)O)C(=O)N[C@@H](CCC(=O)O)C(=O)N[C@@H](CC(C)C)C(=O)O` [KKLFKKILKYLAGPATTGLPALISWKDEL] showed an MIC [1] of 6.12 µM (≈ 19.9 µg/mL), an MIC [2] of 3.54 µM (≈ 11.5 µg/mL) and an MIC [3] of 6.12 µM (≈ 19.9 µg/mL).

`CC[C@H](C)[C@H](NC(=O)CNC(=O)[C@H](C)NC(=O)[C@@H]1CCCN1C(=O)CNC(=O)[C@H](C)NC(=O)[C@H](CC(C)C)NC(=O)[C@H](Cc1ccc(O)cc1)NC(=O)[C@H](CCCCN)NC(=O)[C@H](CC(C)C)NC(=O)[C@@H](NC(=O)[C@H](CCCCN)NC(=O)[C@H](CCCCN)NC(=O)[C@H](Cc1ccccc1)NC(=O)[C@H](CC(C)C)NC(=O)[C@H](CCCCN)NC(=O)[C@@H](N)CCCCN)[C@@H](C)CC)C(=O)NCC(=O)N[C@@H](CCCCN)C(=O)N[C@@H](Cc1ccccc1)C(=O)N[C@@H](CC(C)C)C(=O)N[C@@H](Cc1cnc[nH]1)C(=O)N[C@@H](CO)C(=O)N[C@@H](C)C(=O)N[C@@H](CCCCN)C(=O)O` [KKLFKKILKYLAGPAGIGKFLHSAK] was tested, and the MIC [1] was 1.77 µM (≈ 4.87 µg/mL), the MIC [2] was 3.54 µM (≈ 9.75 µg/mL) and the MIC [3] was 6.12 µM (≈ 16.9 µg/mL).

`CC[C@H](C)[C@H](NC(=O)[C@H](CCC(N)=O)NC(=O)[C@@H](NC(=O)[C@H](C)NC(=O)[C@H](CCC(N)=O)NC(=O)CNC(=O)[C@@H](NC(=O)[C@@H](NC(=O)[C@H](C)NC(=O)[C@@H](NC(=O)[C@H](C)N)C(C)C)C(C)C)C(C)C)[C@@H](C)O)C(=O)N[C@@H](C)C(=O)N[C@@H](CCCCN)C(=O)N[C@@H](CCCCN)C(=O)N[C@@H](CCCCN)C(=O)N[C@@H](CC(C)C)C(=O)N[C@@H](Cc1ccccc1)C(=O)N[C@@H](CCCCN)C(=O)N[C@@H](CCCCN)C(=O)N[C@H](C(=O)N[C@@H](CC(C)C)C(=O)N[C@@H](CCCCN)C(=O)N[C@@H](Cc1ccc(O)cc1)C(=O)N[C@@H](CC(C)C)C(=O)N[C@@H](CCCCN)C(=O)N[C@@H](CC(=O)O)C(=O)N[C@@H](CCC(=O)O)C(=O)N[C@@H](CC(C)C)C(=O)O)[C@@H](C)CC` [AVAVVGQATQIAKKKLFKKILKYLKDEL] gave an MIC [1] of 6.12 µM (≈ 19.3 µg/mL), an MIC [2] of 20 µM (≈ 62.9 µg/mL) and an MIC [3] of 20 µM (≈ 62.9 µg/mL).
